Literature values as cited in article PMC10516900 (Communications Biology, 2023).

Molecular target: Ub
Design: method as in PMID 29056420
Settings: wild type USP7; read-out: binding affinity for Ub; cited from earlier work

USP7: wild type USP7, Ub binding value from ref 29
Kd: 106 ± 15.9 µM
